Target: T1, purified recombinant HIV RT (Human immunodeficiency virus type 1 group M subtype B, UniProt P04585)
T1 construct: purified recombinant HIV RT; purchased Amersham, Arlington Heights, Ill; (Quan-T-RT system)
Test: Purified RT assay, cell-free Quan-T-RT system (scintillation proximity)
Type: biochemical
Conditions: IC50 rRT, Table 1 and text
Method: The synthesized compounds were tested for RT inhibitory activity (IC50 [rRT]) against purified recombinant HIV RT using the cell-free Quan-T-RT system (Amersham, Arlington Heights, Ill.), which utilizes the scintillation proximity assay principle as decribed in Bosworth, et al., 1989, Nature 341:167-168. In the assay, a DNA/RNA template is bound to SPA beads via a biotin/strepavidin linkage. The primer DNA is a 16-mer oligo(T) which has been annealed to a poly(A) template. The primer/template is bound to a strepavidin-coated SPA bead.
^3 H-TTP is incorporated into the primer by reverse transcription. In brief, ^3 H-TTP, at a final concentration of 0.5 μCi/sample, was diluted in RT assay buffer (49.5 mM Tris-Cl, pH 8.0, 80 mM KCl, 10 Mm MgCl2, 10 mM DTT, 2.5 mM EGTA, 0.05% Nonidet-P-40), and added to annealed DNA/RNA bound to SPA beads. The compound being tested was added to the reaction mixture at 0.001 μM-100 μM concentrations. […] The reaction was stopped by addition of 0.2 ml of 120 mM EDTA. The samples were counted in an open window using a Beckman LS 7600 instrument and IC50 values were calculated by comparing the measurements to untreated samples.

S=C(NCCc1ccccn1)Nc1ccc(Br)cn1 [Trovirdine, reference compound]
IC50: 600 nM
